The target in this test is HLA-DR2b (DRA, DRB1*1501) (Homo sapiens, UniProt P01903+P01911). Put plainly: biochemical.

Protein sequences, listed by entry. Tags and fused reporters are not part of them. Residues count along the entry.
UniProt P01903, 26-216 limits assumed: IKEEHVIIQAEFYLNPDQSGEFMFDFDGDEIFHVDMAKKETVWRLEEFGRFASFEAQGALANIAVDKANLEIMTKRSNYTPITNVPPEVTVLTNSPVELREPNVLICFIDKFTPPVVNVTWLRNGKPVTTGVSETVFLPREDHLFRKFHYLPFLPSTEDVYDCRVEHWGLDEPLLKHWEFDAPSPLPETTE
UniProt P01911, 30-227 limits assumed: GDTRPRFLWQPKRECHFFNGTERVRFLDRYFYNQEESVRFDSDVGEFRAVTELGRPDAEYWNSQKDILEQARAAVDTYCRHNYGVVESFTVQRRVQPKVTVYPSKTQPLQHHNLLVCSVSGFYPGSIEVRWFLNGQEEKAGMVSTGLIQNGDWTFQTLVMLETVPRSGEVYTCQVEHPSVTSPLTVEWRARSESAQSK

The values below come from patent publication US8314210B2, “Compositions and methods for the generation of MHC class II compounds by peptide exchange” (priority 2002, dated 2012).

Molecules are shown by their SMILES.

For orientation: IC50 means the concentration that inhibits the measured activity by half. A higher IC50 goes with weaker potency.

In turn, `CC[C@H](C)[C@H](NC(=O)[C@H](CCC(=O)O)NC(=O)CNC(=O)[C@@H](NC(=O)[C@@H]1CCCN1C(=O)[C@@H](NC(=O)[C@@H]1CCCN1C(=O)[C@@H]1CCCN1C(=O)[C@@H](N)CC(N)=O)[C@@H](C)CC)C(C)C)C(=O)N[C@@H](Cc1ccc(O)cc1)C(=O)N[C@@H](CCCCN)C(=O)N[C@@H](CCCNC(=N)N)C(=O)N[C@@H](Cc1c[nH]c2ccccc12)C(=O)N[C@H](C(=O)N[C@H](C(=O)N[C@@H](CC(C)C)C(=O)NCC(=O)N[C@@H](CC(C)C)C(=O)N[C@@H](CC(N)=O)C(=O)N[C@@H](CCCCN)C(=O)N[C@H](C(=O)N[C@H](C(=O)O)C(C)C)[C@@H](C)CC)[C@@H](C)CC)[C@@H](C)CC` [p24 (121-142)] displayed an IC50 of 11 µM.
